Among the data in ChEMBL document CHEMBL3351825, “Polyoxypregnane steroids from the stems of Marsdenia tenacissima” (J Nat Prod, 2014) are Ratio IC50 values, retold here.

Structures are written as SMILES.

Common to all, as to type: cell-based
For assay [1], the system named is SW-620. Description: Reversal of P-gp-mediated resistance assessed as ratio of doxorubicin IC50 for human SW620/AD300 cells to doxorubicin IC50 for human SW620 cells in presence of compound at 10 uM.
Assay [2] concerns SW-620. The experiment in a line: Reversal of P-gp-mediated resistance assessed as ratio of doxorubicin IC50 for human SW620/AD300 cells to doxorubicin IC50 for human SW620 cells in presence of compound at 2 uM.
Assay [3] relates to SW-620. Description: Reversal of P-gp-mediated resistance assessed as ratio of cisplatin IC50 for human SW620/AD300 cells to cisplatin IC50 for human SW620 cells in presence of compound at 10 uM.
Assay [4] concerns SW-620. Description: Reversal of P-gp-mediated resistance assessed as ratio of cisplatin IC50 for human SW620/AD300 cells to cisplatin IC50 for human SW620 cells in presence of compound at 2 uM.

For the compound `CCC(C)C(=O)O[C@@H]1[C@@H](OC(C)=O)[C@]2(C)[C@@H](C(C)=O)CC[C@@]23O[C@]32CC[C@H]3CC(=O)CC[C@]3(C)[C@@H]12` (stereo partly specified), the Ratio IC50 stood at 4 in the assay with SW-620 [1], 19 with SW-620 [2], 1.1 in the assay on SW-620 [3] and 1 in the assay with SW-620 [4]. As for `C/C=C(\C)C(=O)O[C@@H]1[C@@H](O)[C@]2(C)[C@@H](C(C)=O)CC[C@@]23O[C@]32CC[C@H]3C[C@@H](O[C@H]4C[C@@H](OC)[C@H](O[C@@H]5O[C@H](C)[C@@H](O)[C@@H](OC)[C@H]5O)[C@@H](C)O4)CC[C@]3(C)[C@@H]12`, the Ratio IC50 in the assay on SW-620 [1] stood at 213. On the same count and under the same terms, the figure for `CO[C@H]1[C@@H](O)[C@H](O[C@@H]2[C@@H](C)O[C@@H](O[C@H]3CC[C@@]4(C)[C@@H](CC[C@]56OC7(C)OC([C@H]45)[C@@H](O)[C@]4(C)[C@H]7CC[C@@H]64)C3)C[C@H]2OC)O[C@H](C)[C@H]1O` is 198; for `CO[C@H]1[C@@H](O)[C@H](O[C@@H]2[C@@H](C)O[C@@H](O[C@H]3CC[C@@]4(C)[C@@H](CC[C@@]56O[C@@]57CC[C@H](C(C)=O)[C@@]7(C)[C@H](OC(C)=O)[C@@H](OC(=O)c5ccccc5)[C@H]46)C3)C[C@H]2OC)O[C@H](C)[C@H]1O[C@@H]1O[C@H](CO)[C@@H](O[C@@H]2O[C@H](CO)[C@@H](O)[C@H](O)[C@H]2O)[C@H](O)[C@H]1O` it is 168; for `CO[C@H]1[C@@H](O)[C@H](O[C@@H]2[C@@H](C)O[C@@H](O[C@H]3CC[C@@]4(C)[C@@H](CC[C@@]56O[C@@]57CC[C@H](C(C)=O)[C@@]7(C)[C@H](O)[C@@H](OC(C)=O)[C@H]46)C3)C[C@H]2OC)O[C@H](C)[C@H]1O` it is 130.

`CO[C@H]1[C@@H](O)[C@H](O[C@@H]2[C@@H](C)O[C@@H](O[C@H]3CC[C@@]4(C)[C@@H](CC[C@@]56O[C@@]57CC[C@H](C(C)=O)[C@@]7(C)[C@H](O)[C@@H](OC(=O)c5ccccc5)[C@H]46)C3)C[C@H]2OC)O[C@H](C)[C@H]1O`: the Ratio IC50 in the assay with SW-620 [1] was found to be 138. Still for that read-out and setting: the figure for `CO[C@H]1[C@@H](O)[C@H](O[C@@H]2[C@@H](C)O[C@@H](O[C@H]3CC[C@@]4(C)[C@@H](CC[C@@]56O[C@@]57CC[C@H](C(C)=O)[C@@]7(C)[C@H](O)[C@@H](O)[C@H]46)C3)C[C@H]2OC)O[C@H](C)[C@H]1O[C@@H]1O[C@H](CO)[C@@H](O)[C@H](O)[C@H]1O` is 165. For the compound `C/C=C(\C)C(=O)O[C@@H]1[C@@H](O)[C@]2(C)[C@@H](C(C)=O)CC[C@@]23O[C@]32CC[C@H]3C[C@@H](O[C@H]4C[C@@H](OC)[C@H](O[C@@H]5O[C@H](C)[C@@H](O[C@@H]6O[C@H](CO)[C@@H](O)[C@H](O)[C@H]6O)[C@@H](OC)[C@H]5O)[C@@H](C)O4)CC[C@]3(C)[C@@H]12`, the Ratio IC50 with SW-620 [1] was determined as 133.
